From PubChem BioAssay AID1471 (National Center for Advancing Translational Sciences (NCATS), 2008)
The list shows a part of the results, in another mix than the full data. Some of these compounds have results that are not shown, active ones among them. The source made the active and inactive calls. The call rests on the fitted dose curve; in most records, active means well fitted activation curve with a large enough effect; inconclusive means small, poorly fitted or top-dose-only effect; inactive means no such curve, though single readings can be large or run the other way.

assay: qHTS Multiplex Assay to Identify Dual Action Probes in a Cell Model of Huntington: Cytoprotection (ATP); conditions: PC12 HTT-Q103 induced, ATP luminescence, 40 h; at 10 µM unless noted;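 further: toxic huntingtin expression switched on by the ecdysone agonist tebufenozide; % of control where 0% means no effect; nearly all actives have a fitted effect of over 45% in size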
From the text: NIH Chemical Genomics Center [NCGC]
NIH Molecular Libraries Probe Production centers Network [MLPCN]
Assay Submitter (PI): Wei Zheng
Huntington's disease is a neurodegenerative disorder caused by a trinucleotide repeat expansion in Exon 1 of the Huntingtin gene. The CAG trinucleotide encodes glutamine and polyglutamine expansions cause cell death in selective areas of the brain. Huntington polyglutamine repeats have the tendency to form aggregates which are observable in later stages of the disease. The exact nature of the aggregates, whether toxic, protective, or insignificant, is unclear.
A stable PC12 cell line containing a gene fusion of Exon 1 of the Huntingtin gene linked to GFP under the control of the inducible ecdysone promoter were used as the cell-based model of Huntington Disease for high throughput screening. Exon 1 of the Huntingtin gene contained an expansion of 103 polyglutamines (Q103) which, when expressed, caused cell death and distinct, bright GFP aggregates. The amount of cell death and the size and intensity of GFP aggregates increased over time and induction level. The cell death were quantified with a measurement of ATP content in the cells. A maximal 40-50% of cell death was observed when the Huntington gene was induced in this cell line.
We optimized this assay in a homogeneous 1536 well format. A quantitative high throughput screen (qHTS) was conducted on the PC12 cells which were induced to express the toxic fusion construct. Small molecules which prevented cell death were identified by using a luminescent ATP quantification method (Perkin Elmer's ATPlite).
PC12 cells stably containing a construct with an ecdysone inducible promoter expressing GFP fused to the exon 1 of HTTQ103 (Huntington protein which containing a 103 ployglutamine expansion) were used.
NCGC Assay Protocol Summary:
Sequence, Parameter, Description
1, Reagent, 5 uL 1500 cells/well 1536 TC treated White clear bottom plate
2, Compound, 23 nL Tebufenozide inducer (100 nM final) to all columns
3, Compound, 23 nL 40 uM to 0.5 nM Libraries
5, Reagent, 5 ul ATPLite cell death assay reagent
6, Detector, 4 sec integration with a Viewlux Luminescent
Media consisted of phenol red free DMEM + 5% equine serum (Hyclone # SH30072.03 ), 5% supplemented Bovine Calf Serum (Hyclone # SH30074.03 ), 1x pen/strep, no G418
Control columns: 1 = DMSO, 2= 2 uM teb dilns (1:1), 4 = 100 nM Teb inducer. Sample columns received 100 nM Teb.

SMILES	cytoprotection (ATP increase)
COc1cccc(C(=O)NCC2(N3CCCCC3)CCCCC2)c1	inactive: 10.4% [at 56.4 µM]
CN1CCC[C@H](OC(=O)[C@](O)(c2ccccc2)C2CCCC2)C1	inactive: 16.2%
CN1CC[C@H](OC(=O)[C@](O)(c2ccccc2)C2CCCC2)C1	inactive: -0.351%
O=C(OC1CN2CCC1CC2)C(CO)(c1ccccc1)c1ccccc1 (stereo not drawn)	inactive: -16.6%
C=C(C)C#C[C@@](O)(C(=O)OC1CCN(C)CC1)c1ccccc1	inactive: -4.93%
COc1ccc(Br)c(C(=O)NCC2(N3CCCCC3)CCCCC2)c1	inactive: 7.41%
CN(C)c1cccc(C(=O)NCC2(N(C)C)CCCCC2)c1	inactive: -1.41% [at 56.4 µM]
O=C(NCC1(N2CCCCC2)CCCCC1)c1cc([N+](=O)[O-])ccc1Cl	inactive: 3.75% [at 56.4 µM]
CCN(CC)CC(C)C(C)OC(=O)C(O)(c1ccccc1)c1ccccc1 (stereo not drawn)	inactive: 17.5%
CC(C)N1C(=O)CC2(CCN(CCOC(=O)C(O)(c3ccccc3)c3ccccc3)CC2)C1=O	inactive: 9.64% [at 56.4 µM]
CN(C)C1CCCC1OC(=O)C(O)(c1ccccc1)c1ccccc1 (stereo not drawn)	inactive: -11.5%
CN1CCCC(OC(=O)C(O)(c2ccccc2)c2ccccc2)C1 (stereo not drawn)	inactive: -4.06% [at 56.4 µM]
C=CCN1CCN(CCOC(=O)C(O)(c2ccccc2)c2ccccc2)CC1	inactive: -6.17%
